Laboratory results published in ChEMBL document CHEMBL1128739, “Structure-activity relationships in the 8-amino-6,7,8,9-tetrahydro-3H-benz[e]indole ring system. 2. Effects of 8-amino nitrogen substitution on serotonin receptor binding and pharmacology” (J Med Chem, 1995).

Amino acid sequences for entries named in this document (tags omitted).
UniProt P61169, whole entry: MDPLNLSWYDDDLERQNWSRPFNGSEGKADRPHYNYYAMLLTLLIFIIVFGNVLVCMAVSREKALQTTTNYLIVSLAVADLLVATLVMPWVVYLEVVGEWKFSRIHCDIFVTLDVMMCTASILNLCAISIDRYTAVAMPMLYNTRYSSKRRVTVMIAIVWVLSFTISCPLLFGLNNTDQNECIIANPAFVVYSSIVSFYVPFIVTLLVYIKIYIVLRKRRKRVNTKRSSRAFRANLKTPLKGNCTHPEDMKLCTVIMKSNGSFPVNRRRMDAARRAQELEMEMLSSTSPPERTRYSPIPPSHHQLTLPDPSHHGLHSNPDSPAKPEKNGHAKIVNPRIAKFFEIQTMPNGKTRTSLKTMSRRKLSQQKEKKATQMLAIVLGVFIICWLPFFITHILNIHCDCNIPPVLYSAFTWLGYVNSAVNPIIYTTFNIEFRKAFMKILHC

Target: D(2) dopamine receptor (Rattus norvegicus, UniProt P61169)
Assay: Binding affinity rat Dopamine receptor D2 expressed in CHO-K1 cells by [3H]U-86170 displacement.
Assay type: cell-based

Row | SMILES | Ki [nM]
1 | CN(C)[C@H]1CCc2ccc3[nH]ccc3c2C1 | 377
2 | CN(C)C1CCc2ccc3[nH]ccc3c2C1 (configuration not stated) | 24
